Measurements reported in patent US10981899B2, “Inhibitors of soluble adenylyl cyclase” (CORNELL UNIVERSITY, priority 2016, dated 2021).

System: mouse sperm
Experiment: Sperm capacitation, hyperactivation and in vitro fertilization assays

CC(Sc1nc2ccccc2[nH]1)C(=O)N/N=C/c1cc(Br)ccc1O (stereo not shown) [KH7]
effect on sAC-dependent functions in sperm: blocked
